According to PubChem BioAssay AID652115 (Broad Institute, 2013):
The entries are a selection whose mix differs from that of the whole data set. Activity calls are given as the source filed them. No stated cut-off is given here; in the data, active means inhibition above about 15%; inconclusive means no clear call, values can overlap the other calls; inactive means below that.

Chains of the proteins cited; added tags and fusions are not shown. Lines headed by an entry give the natural chain unless they say otherwise; changes in a name come on top.
UniProt Q9NXA8: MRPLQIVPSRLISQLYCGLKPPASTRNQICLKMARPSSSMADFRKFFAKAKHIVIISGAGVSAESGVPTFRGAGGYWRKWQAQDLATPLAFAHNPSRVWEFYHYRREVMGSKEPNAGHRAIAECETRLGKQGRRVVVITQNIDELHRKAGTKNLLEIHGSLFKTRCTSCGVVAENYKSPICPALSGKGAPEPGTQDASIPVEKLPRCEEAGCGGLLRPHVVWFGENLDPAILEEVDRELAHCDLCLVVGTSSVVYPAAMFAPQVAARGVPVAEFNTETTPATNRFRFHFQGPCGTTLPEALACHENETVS

Each compound was assayed against NAD-dependent protein deacylase sirtuin-5, mitochondrial (Homo sapiens) (UniProt Q9NXA8) (assay: blockers of sirtuin-5 deacylase activity – biochemical, fluorescence imaging, single point, set 5, primary screen (AID 652115)). Conditions: Purified SirT5, succinyl-peptide AMC, trypsin-coupled fluorescence; at 15 µM; hits give high values.
With Cc1cc(=O)[nH]c(N[N+](=O)[O-])n1 the inhibition was inactive: 3.85%. With Cc1c2c(nc3ccccc13)SC(C(Cl)Cl)C2 (configuration not stated) the inhibition was inactive: -0.33%. In the case of COc1ccc(N/C(=N/P(=O)(N2CCOCC2)N2CCOCC2)N2CCOCC2)cc1, the inhibition is reported as inactive: -0.21%. O=[N+]([O-])c1cc(Oc2ccc([N+](=O)[O-])cc2C(F)(F)F)cc([N+](=O)[O-])c1 was tested, and the inhibition was inactive: 7.04%. In the case of Cc1ccc2nc3c(c(C)c2c1)CC(C(Cl)Cl)S3 (configuration not stated), the inhibition is reported as inactive: -4.42%. In the case of [N-]=[N+]=NC1CCCCC1NC(=O)c1cc([N+](=O)[O-])cc([N+](=O)[O-])c1 (configuration not stated), the inhibition is reported as inactive: -2.71%. For Cc1ccc(OP(=O)(Nc2ccc([N+](=O)[O-])cn2)Oc2ccc(C)cc2)cc1, the inhibition was inactive: -3.93%. In the case of COc1cc(C(=O)NCC2(N3CCOCC3)CCCCC2)ccc1OCC(C)C, the inhibition is reported as inactive: 0.551%. With O=[N+]([O-])c1ccc(-c2cc([N+](=O)[O-])c(O)c([N+](=O)[O-])c2)cc1 the inhibition was inactive: 7.53%. With C[As](=O)(O)c1cccc(C(=O)O)c1 the inhibition was inactive: 0.986%. With O=[As](O)(c1ccc(O)cc1)c1ccccc1O the inhibition was inactive: -0.057%. For O=C(OC1CN2CCC1CC2)c1cccc2[nH]cnc12 (configuration not stated), the inhibition was inactive: -4.29%. CC(C)NC(=O)NP(=O)(Oc1ccccc1)Oc1ccccc1 was tested, and the inhibition was inactive: -1.43%. In the case of CC(C)c1ccc(OP(=O)(Nc2ccccn2)Oc2ccccc2F)cc1 (configuration not stated), the inhibition is reported as inactive: -1.27%. COC(=O)C1(C)COP(=O)(N2CCCCCC2)OC1 (configuration not stated) was tested, and the inhibition was inactive: 0.604%. With CCCCOc1ccc(C(=O)NCC2(N3CCCCC3)CCCCC2)cc1OC the inhibition was inactive: -3.84%. With CC1CCNP(=O)(N(CCCl)CCCl)O1 (configuration not stated) the inhibition was inactive: -1.04%. CCOC(=O)Nc1ccc([As](=O)(O)O)c(O)c1 was tested, and the inhibition was inactive: -0.481%. For O=[N+]([O-])c1ccc(Nc2ccc(Oc3ccc([N+](=O)[O-])cc3[N+](=O)[O-])cc2)c([N+](=O)[O-])c1, the inhibition was inactive: -5.08%. For O=P(Nc1ccccn1)(c1cccc2ccccc12)c1cccc2ccccc12, the inhibition was inactive: 0.434%. For Cc1cc(SC(NC=O)C(Cl)(Cl)Cl)ncn1 (configuration not stated), the inhibition was inactive: -4.46%. For CCOC(=O)Nc1cccc([As](=O)(O)O)c1, the inhibition was inactive: -5.74%. O=C(Nc1ccncc1[N+](=O)[O-])c1ccc([N+](=O)[O-])cc1[N+](=O)[O-] was tested, and the inhibition was inactive: -1.64%. With O=C(O)C(=O)c1ccc(N(CCCl)CCCl)cc1 the inhibition was inactive: -5.54%. In the case of COP1(=S)c2c(C)nn(CCC#N)c2N=C(c2ccc(F)cc2)N1C (configuration not stated), the inhibition is reported as inactive: -1.28%. For CCOC(=O)c1ccc(NC(=O)C(C)(CCl)SC)cc1 (configuration not stated), the inhibition was inactive: -1.27%. For O=C(OC1CN2CCC1CC2)c1cccc([N+](=O)[O-])c1 (configuration not stated), the inhibition was inactive: -2.17%.
